# Data as given in patent EP4834897A1, “COMPOUNDS WITH TWO AZAHETEROCYCLES SUBSTITUTED ISOINDOLINONE SKELETON AND USES THEREOF” (dated 2026).
# Chains of the proteins cited; added tags and fusions are not shown.
# UniProt P48729, whole entry: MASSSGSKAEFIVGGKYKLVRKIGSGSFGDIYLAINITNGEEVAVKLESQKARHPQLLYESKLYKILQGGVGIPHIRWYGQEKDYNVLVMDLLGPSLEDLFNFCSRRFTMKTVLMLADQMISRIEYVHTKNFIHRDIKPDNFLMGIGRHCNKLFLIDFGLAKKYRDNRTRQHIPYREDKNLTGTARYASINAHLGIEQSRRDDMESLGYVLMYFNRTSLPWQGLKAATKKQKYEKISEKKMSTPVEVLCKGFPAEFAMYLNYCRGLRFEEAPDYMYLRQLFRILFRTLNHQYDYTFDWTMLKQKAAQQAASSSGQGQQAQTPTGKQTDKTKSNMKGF
# UniProt Q96SW2, whole entry: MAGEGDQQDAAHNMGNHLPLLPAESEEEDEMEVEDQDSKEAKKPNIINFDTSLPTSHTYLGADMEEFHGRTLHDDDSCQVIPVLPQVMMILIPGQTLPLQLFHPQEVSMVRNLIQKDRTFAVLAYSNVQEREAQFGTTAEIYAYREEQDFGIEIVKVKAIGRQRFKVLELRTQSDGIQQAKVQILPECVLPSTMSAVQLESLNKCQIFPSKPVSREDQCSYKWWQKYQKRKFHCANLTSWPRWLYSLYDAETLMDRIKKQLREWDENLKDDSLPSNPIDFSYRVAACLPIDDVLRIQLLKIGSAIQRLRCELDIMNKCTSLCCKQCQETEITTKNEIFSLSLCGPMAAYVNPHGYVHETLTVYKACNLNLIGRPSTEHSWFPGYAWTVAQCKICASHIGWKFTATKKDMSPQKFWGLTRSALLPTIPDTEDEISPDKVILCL
# UniProt P15170, whole entry: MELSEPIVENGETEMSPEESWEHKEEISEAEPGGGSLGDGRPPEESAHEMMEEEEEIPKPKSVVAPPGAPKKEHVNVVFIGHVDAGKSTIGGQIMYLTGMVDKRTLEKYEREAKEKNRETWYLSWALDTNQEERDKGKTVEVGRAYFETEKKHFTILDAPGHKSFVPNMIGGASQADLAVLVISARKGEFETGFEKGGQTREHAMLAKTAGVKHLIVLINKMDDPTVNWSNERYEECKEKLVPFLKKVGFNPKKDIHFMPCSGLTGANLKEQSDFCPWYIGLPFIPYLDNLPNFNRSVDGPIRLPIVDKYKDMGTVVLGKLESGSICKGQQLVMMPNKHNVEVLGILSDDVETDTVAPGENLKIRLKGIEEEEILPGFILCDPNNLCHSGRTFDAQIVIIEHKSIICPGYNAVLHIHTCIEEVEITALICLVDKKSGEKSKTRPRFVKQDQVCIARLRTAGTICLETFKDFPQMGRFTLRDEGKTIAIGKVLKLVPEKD
# UniProt Q13422, whole entry: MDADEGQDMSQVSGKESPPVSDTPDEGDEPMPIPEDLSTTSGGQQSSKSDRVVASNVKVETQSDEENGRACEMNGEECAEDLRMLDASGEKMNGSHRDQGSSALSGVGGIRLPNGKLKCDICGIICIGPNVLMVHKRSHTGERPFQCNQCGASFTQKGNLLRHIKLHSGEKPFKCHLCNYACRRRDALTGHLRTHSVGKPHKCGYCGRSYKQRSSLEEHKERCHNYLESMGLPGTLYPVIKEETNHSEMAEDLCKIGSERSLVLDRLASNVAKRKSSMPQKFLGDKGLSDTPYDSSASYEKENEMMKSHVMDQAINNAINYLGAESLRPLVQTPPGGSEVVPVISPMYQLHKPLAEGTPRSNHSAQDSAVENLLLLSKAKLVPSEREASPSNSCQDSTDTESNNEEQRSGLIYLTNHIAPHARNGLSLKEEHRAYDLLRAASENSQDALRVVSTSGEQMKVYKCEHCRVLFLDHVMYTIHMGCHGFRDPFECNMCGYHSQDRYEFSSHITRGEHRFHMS
# UniProt Q9UKS7, whole entry: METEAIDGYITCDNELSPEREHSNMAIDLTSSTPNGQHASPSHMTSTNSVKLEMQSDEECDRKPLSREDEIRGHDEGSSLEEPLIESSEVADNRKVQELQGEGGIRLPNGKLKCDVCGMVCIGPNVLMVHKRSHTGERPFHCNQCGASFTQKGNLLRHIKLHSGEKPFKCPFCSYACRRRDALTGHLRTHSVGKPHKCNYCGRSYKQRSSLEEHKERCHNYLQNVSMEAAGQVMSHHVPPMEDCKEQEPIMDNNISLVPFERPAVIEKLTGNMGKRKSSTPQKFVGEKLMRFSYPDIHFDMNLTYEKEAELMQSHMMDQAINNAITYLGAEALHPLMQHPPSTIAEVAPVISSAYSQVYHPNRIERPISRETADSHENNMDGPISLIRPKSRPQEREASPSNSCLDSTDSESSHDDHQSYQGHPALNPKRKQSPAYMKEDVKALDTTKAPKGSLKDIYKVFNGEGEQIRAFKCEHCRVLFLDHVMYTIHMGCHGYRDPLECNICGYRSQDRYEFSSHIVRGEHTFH
# UniProt Q9UKT9, whole entry: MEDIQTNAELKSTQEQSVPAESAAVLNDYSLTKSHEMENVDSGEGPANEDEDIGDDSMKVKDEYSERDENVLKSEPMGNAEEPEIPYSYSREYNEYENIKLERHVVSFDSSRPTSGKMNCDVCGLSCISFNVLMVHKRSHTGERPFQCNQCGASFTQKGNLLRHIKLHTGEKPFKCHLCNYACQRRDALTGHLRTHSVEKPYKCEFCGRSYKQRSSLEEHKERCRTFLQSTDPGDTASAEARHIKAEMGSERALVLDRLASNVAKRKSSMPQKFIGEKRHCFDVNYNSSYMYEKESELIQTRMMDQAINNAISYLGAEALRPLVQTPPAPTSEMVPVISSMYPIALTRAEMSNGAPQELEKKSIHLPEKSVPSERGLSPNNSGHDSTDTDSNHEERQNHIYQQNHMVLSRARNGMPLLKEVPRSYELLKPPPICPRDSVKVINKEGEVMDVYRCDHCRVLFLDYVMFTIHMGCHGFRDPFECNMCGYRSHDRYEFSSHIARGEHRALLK
# UniProt P30291, whole entry: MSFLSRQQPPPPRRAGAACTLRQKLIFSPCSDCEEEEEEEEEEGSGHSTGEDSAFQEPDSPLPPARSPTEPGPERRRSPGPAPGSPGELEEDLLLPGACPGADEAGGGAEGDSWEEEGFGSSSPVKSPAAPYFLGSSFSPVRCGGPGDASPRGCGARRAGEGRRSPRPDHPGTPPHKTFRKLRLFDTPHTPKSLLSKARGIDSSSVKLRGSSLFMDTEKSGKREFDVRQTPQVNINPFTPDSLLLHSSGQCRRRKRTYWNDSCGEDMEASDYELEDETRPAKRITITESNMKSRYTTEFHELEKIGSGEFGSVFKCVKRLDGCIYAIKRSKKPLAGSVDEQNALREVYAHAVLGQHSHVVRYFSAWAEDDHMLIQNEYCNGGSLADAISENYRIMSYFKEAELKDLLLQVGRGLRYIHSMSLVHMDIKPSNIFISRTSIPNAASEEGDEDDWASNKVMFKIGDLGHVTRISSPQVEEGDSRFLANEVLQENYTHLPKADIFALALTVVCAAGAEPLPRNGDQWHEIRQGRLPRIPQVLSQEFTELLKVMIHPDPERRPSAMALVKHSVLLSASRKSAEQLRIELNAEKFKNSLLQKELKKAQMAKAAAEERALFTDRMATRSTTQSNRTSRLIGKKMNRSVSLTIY
# UniProt Q16531, whole entry partner: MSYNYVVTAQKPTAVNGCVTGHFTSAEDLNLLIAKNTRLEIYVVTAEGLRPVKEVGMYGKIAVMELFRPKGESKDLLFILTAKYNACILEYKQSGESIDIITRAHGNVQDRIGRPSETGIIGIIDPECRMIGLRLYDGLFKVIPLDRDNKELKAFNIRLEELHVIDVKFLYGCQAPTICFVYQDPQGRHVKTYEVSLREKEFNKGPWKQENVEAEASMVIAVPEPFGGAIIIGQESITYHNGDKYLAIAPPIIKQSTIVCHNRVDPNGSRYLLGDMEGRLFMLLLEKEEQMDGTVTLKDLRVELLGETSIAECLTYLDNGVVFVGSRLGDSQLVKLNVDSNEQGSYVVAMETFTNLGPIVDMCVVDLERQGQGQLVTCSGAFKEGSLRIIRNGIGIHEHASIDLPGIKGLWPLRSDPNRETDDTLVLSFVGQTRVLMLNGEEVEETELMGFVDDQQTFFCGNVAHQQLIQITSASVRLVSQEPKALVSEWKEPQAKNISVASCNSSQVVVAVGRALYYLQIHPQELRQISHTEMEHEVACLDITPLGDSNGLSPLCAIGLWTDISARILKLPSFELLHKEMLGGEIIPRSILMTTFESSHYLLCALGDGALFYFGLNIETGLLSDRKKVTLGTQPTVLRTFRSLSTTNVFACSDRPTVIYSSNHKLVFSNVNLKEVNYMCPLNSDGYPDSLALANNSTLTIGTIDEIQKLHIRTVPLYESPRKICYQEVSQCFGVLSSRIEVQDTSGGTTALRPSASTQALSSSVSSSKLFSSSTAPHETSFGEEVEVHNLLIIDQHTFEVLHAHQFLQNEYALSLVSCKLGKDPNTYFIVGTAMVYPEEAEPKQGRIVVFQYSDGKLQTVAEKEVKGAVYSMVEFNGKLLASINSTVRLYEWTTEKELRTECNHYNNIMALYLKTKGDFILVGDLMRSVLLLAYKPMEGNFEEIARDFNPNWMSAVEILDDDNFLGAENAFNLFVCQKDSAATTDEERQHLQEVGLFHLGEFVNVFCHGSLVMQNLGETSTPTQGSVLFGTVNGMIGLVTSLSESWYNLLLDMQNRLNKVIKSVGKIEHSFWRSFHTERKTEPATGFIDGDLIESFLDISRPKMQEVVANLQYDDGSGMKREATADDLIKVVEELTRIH
# Legend:
# Test in all cases: Western blot assay of substrate protein degradation in hPBMCs
# Details in all cases: 24 hours treatment, compounds at 50 nM and 500 nM (concentration behind the class not stated)
# [1] = target: CK1α (Homo sapiens, UniProt P48729+Q96SW2)
# [2] = target: GSPT1 (Homo sapiens, UniProt P15170+Q96SW2)
# [3] = target: IKZF1 (Homo sapiens, UniProt Q13422+Q96SW2)
# [4] = target: IKZF2 (Homo sapiens, UniProt Q96SW2+Q9UKS7)
# [5] = target: IKZF3 (Homo sapiens, UniProt Q96SW2+Q9UKT9)
# [6] = target: WEE1 (Homo sapiens, UniProt P30291+Q96SW2)
Compound,substrate protein remaining % (CK1a) [1],substrate protein remaining % (GSPT1) [2],substrate protein remaining % (IKZF 1) [3],substrate protein remaining % (IKZF2) [4],substrate protein remaining % (IKZF3) [5],substrate protein remaining % (WEE1) [6]
O=C1CCN(N2Cc3cc(CN4CCC(N5CCN(C(c6ccccc6)c6ccccc6)CC5)C(F)(F)C4)ccc3C2=O)C(=O)N1 (stereo not drawn),B (80%< substrate protein remaining %≤ 100%),A (0% ≤ substrate protein remaining % ≤ 80%),B (80%< substrate protein remaining %≤ 100%),B (80%< substrate protein remaining %≤ 100%),B (80%< substrate protein remaining %≤ 100%),B (80%< substrate protein remaining %≤ 100%)
O=C1CCC(N2Cc3ccc(CN4CCC(N5CCN(c6noc7cc(F)ccc67)CC5)C(F)(F)C4)cc3C2=O)C(=O)N1 (stereo not drawn),B (80%< substrate protein remaining %≤ 100%),A (0% ≤ substrate protein remaining % ≤ 80%),B (80%< substrate protein remaining %≤ 100%),B (80%< substrate protein remaining %≤ 100%),B (80%< substrate protein remaining %≤ 100%),B (80%< substrate protein remaining %≤ 100%)
O=C1CCC(N2Cc3cccc(C(=O)N4CCC(N5CCN(c6cccc(Cl)c6Cl)CC5)CC4)c3C2=O)C(=O)N1 (stereo not drawn),A (0% ≤ substrate protein remaining % ≤ 80%),A (0% ≤ substrate protein remaining % ≤ 80%),B (80%< substrate protein remaining %≤ 100%),B (80%< substrate protein remaining %≤ 100%),B (80%< substrate protein remaining %≤ 100%),B (80%< substrate protein remaining %≤ 100%)
O=C1CCC(N2C(=O)c3cccc(C(=O)N4CCC(N5CCN(c6noc7cc(F)ccc67)CC5)C(F)(F)C4)c3C2=O)C(=O)N1 (stereo not drawn),B (80%< substrate protein remaining %≤ 100%),B (80%< substrate protein remaining %≤ 100%),B (80%< substrate protein remaining %≤ 100%),A (0% ≤ substrate protein remaining % ≤ 80%),B (80%< substrate protein remaining %≤ 100%),B (80%< substrate protein remaining %≤ 100%)
O=C1CCN(N2Cc3cc(CN4CCC(N5CCN(C(c6ccccc6)c6ccccn6)CC5)C(F)(F)C4)ccc3C2=O)C(=O)N1 (stereo not drawn),A (0% ≤ substrate protein remaining % ≤ 80%),A (0% ≤ substrate protein remaining % ≤ 80%),B (80%< substrate protein remaining %≤ 100%),B (80%< substrate protein remaining %≤ 100%),A (0% ≤ substrate protein remaining % ≤ 80%),B (80%< substrate protein remaining %≤ 100%)
O=C1CCC(N2C(=O)c3cccc(C(=O)N4CCC(N5CCN(c6cccc(Cl)c6Cl)CC5)CC4)c3C2=O)C(=O)N1 (stereo not drawn),A (0% ≤ substrate protein remaining % ≤ 80%),A (0% ≤ substrate protein remaining % ≤ 80%),B (80%< substrate protein remaining %≤ 100%),B (80%< substrate protein remaining %≤ 100%),B (80%< substrate protein remaining %≤ 100%),A (0% ≤ substrate protein remaining % ≤ 80%)
O=C1CCC(N2C(=O)c3cccc(C(=O)N4CCC(N5CC=C(c6cccc(Cl)c6Cl)CC5)C(F)(F)C4)c3C2=O)C(=O)N1 (stereo not drawn),B (80%< substrate protein remaining %≤ 100%),A (0% ≤ substrate protein remaining % ≤ 80%),B (80%< substrate protein remaining %≤ 100%),B (80%< substrate protein remaining %≤ 100%),B (80%< substrate protein remaining %≤ 100%),A (0% ≤ substrate protein remaining % ≤ 80%)
O=C1CCC(N2C(=O)c3ccc(C(=O)N4CCC(N5CCN(c6cccc(Cl)c6Cl)CC5)CC4)cc3C2=O)C(=O)N1 (stereo not drawn),A (0% ≤ substrate protein remaining % ≤ 80%),A (0% ≤ substrate protein remaining % ≤ 80%),B (80%< substrate protein remaining %≤ 100%),B (80%< substrate protein remaining %≤ 100%),B (80%< substrate protein remaining %≤ 100%),B (80%< substrate protein remaining %≤ 100%)
O=C1CCC(N2C(=O)c3cccc(CN4CCC(N5CCC(c6noc7cc(F)ccc67)CC5)C(F)(F)C4)c3C2=O)C(=O)N1 (stereo not drawn),B (80%< substrate protein remaining %≤ 100%),A (0% ≤ substrate protein remaining % ≤ 80%),B (80%< substrate protein remaining %≤ 100%),B (80%< substrate protein remaining %≤ 100%),B (80%< substrate protein remaining %≤ 100%),B (80%< substrate protein remaining %≤ 100%)
O=C1CCC(N2Cc3c(CN4CCC(N5CCN(C(c6ccccc6)c6ccccc6)CC5)C(F)(F)C4)cccc3C2=O)C(=O)N1 (stereo not drawn),B (80%< substrate protein remaining %≤ 100%),A (0% ≤ substrate protein remaining % ≤ 80%),A (0% ≤ substrate protein remaining % ≤ 80%),B (80%< substrate protein remaining %≤ 100%),A (0% ≤ substrate protein remaining % ≤ 80%),A (0% ≤ substrate protein remaining % ≤ 80%)
O=C1CCC(N2Cc3cc(C(=O)N4CCC(N5CCN(c6cccc(Cl)c6Cl)CC5)C(F)(F)C4)ccc3C2=O)C(=O)N1 (stereo not drawn),A (0% ≤ substrate protein remaining % ≤ 80%),A (0% ≤ substrate protein remaining % ≤ 80%),B (80%< substrate protein remaining %≤ 100%),B (80%< substrate protein remaining %≤ 100%),B (80%< substrate protein remaining %≤ 100%),B (80%< substrate protein remaining %≤ 100%)
O=C1CCC(N2C(=O)c3ccc(C(=O)N4CCC(N5CCN(c6noc7cc(F)ccc67)CC5)CC4)cc3C2=O)C(=O)N1 (stereo not drawn),B (80%< substrate protein remaining %≤ 100%),A (0% ≤ substrate protein remaining % ≤ 80%),A (0% ≤ substrate protein remaining % ≤ 80%),B (80%< substrate protein remaining %≤ 100%),B (80%< substrate protein remaining %≤ 100%),B (80%< substrate protein remaining %≤ 100%)
CC1(C)CCC(C(=O)N2CCN(C3CCN(Cc4ccc5c(c4)C(=O)N(N4CCC(=O)NC4=O)C5=O)CC3(F)F)CC2)=C(c2ccc(Cl)cc2)C1 (stereo not drawn),B (80%< substrate protein remaining %≤ 100%),A (0% ≤ substrate protein remaining % ≤ 80%),B (80%< substrate protein remaining %≤ 100%),A (0% ≤ substrate protein remaining % ≤ 80%),A (0% ≤ substrate protein remaining % ≤ 80%),B (80%< substrate protein remaining %≤ 100%)
O=C1CCC(N2C(=O)c3cccc(C(=O)N4CCC(N5CCN(C(c6ccccc6)c6ccccc6)CC5)CC4)c3C2=O)C(=O)N1 (stereo not drawn),A (0% ≤ substrate protein remaining % ≤ 80%),A (0% ≤ substrate protein remaining % ≤ 80%),A (0% ≤ substrate protein remaining % ≤ 80%),B (80%< substrate protein remaining %≤ 100%),B (80%< substrate protein remaining %≤ 100%),B (80%< substrate protein remaining %≤ 100%)
